Source: PMC10166890, “Screening for DAX1/EWS‐FLI1 functional inhibitors identified dihydroorotate dehydrogenase as a therapeutic target for Ewing's sarcoma” (Cancer Medicine, 2023)

The chains behind the UniProt entries cited, without tags or fusion partners.
UniProt Q02127, whole entry: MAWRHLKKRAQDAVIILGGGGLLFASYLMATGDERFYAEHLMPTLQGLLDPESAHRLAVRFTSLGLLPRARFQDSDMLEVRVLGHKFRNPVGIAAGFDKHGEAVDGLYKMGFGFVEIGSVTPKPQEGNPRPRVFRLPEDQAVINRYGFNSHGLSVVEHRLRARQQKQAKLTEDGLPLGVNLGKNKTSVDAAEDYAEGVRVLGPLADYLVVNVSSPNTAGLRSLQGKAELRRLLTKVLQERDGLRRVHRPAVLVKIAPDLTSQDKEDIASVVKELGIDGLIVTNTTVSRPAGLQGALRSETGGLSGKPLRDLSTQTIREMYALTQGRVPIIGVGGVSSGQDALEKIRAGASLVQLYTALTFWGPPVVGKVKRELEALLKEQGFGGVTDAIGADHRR

Assays:
TC‐71 cells = assay: Cell viability assay (XTT), TC‐71 cells; conditions: 72 h
DAX1 = DAX1 reporter assay (KJMGER8/pAGal9p4‐hDAX1 cells, luciferase); format: cell-based, human; conditions: read-out: DAX1 reporter IC50; Table S3
Experimental: pAGal9‐hDAX1 and pAPPRE×10‐Luc + were transfected into KJMGER8 cells by electroporation using a Gene Pulser (Bio‐Rad Laboratories, Hercules, CA, USA), and clones stably expressing the DAX1 and luciferase reporter genes under the control of PPRE were selected. The obtained clone was termed KJMGER8/pAGal9p4‐hDAX1. KJMGER8/pAGal9p4‐hDAX1 cells (1.8 × 10^4 cells/well) were seeded in 384‐well white plates (Greiner Japan, Tokyo, Japan) and cultured in RPMI1640‐IPTSG medium containing 10 nM 17β‐estradiol (E2; Sigma‐Aldrich), dissolved in ethanol, with test compounds at concentration ranges of 0.01 to 10,000 nM or vehicle (dimethyl sulfoxide [DMSO]). The final DMSO concentration was ≤0.3%, and the ethanol concentration was 0.1%. […] The luciferase activity was measured using a TopCount NXT system (PerkinElmer, Waltham, MA, USA). IC50 values were calculated using XLfit version 4 (ID Business Solutions, Surrey, UK). […]
pAGal9-hDAX1 and pAPPRE×10-Luc+ were transfected into KJMGER8 cells by electroporation using a Gene Pulser (Bio-Rad Laboratories, Hercules, CA, USA), and clones stably expressing the DAX1 and luciferase reporter genes under the control of PPRE were selected. […] The luciferase activity was measured using a TopCount NXT system (PerkinElmer, Waltham, MA, USA). IC50 values were calculated using XLfit version 4 (ID Business Solutions, Surrey, UK)

DHODH = DHODH (Homo sapiens, UniProt Q02127); assay: DHODH inhibition assay, A‐673 mitochondria fraction (orotic acid production, LCMSMS); format: biochemical; conditions: read-out: DHODH IC50, Table S3
A‐673 cells = assay: Cell viability assay (XTT), A‐673 cells

IC50 (DAX1): 437 nM
IC50 (DHODH): 25.2 nM
SMILES: O=S(=O)(Oc1ccc(NCc2ccccc2)cc1)c1ccc(-c2ccc(F)cc2)nc1
Cell viability of TC‐71 cells (TC‐71 cells): decreased the viability
Cell viability of A‐673 cells (A‐673 cells; 72 h): decreased the viability
GI50 (A‐673 cells; read-out: A673 GI50, 50% growth inhibition concentration, A‐673 cells): 247 nM
